Experimental findings from US8796244B2, “Imidazopyridine derivatives as inhibitors of receptor tyrosine kinases” (Astex Therapeutics Ltd, priority 2008, dated 2014) are described below.

pIC50: −log10 of the molar value.

The subject of this test is parental wild-type Ba/F3 cells. In words: Ba/F3 (WT) cell proliferation assay (Alamar Blue). Type of test: cell-based. The conditions noted are these: read-out: BaF3 WT prolif, 72 hours. For orientation: Resazurin is reduced to fluorescent resorufin, in cell work by metabolically active cells.

`Cc1cc(-c2ccn3c(-c4cccc(NC(=O)NCC(F)(F)F)c4)cnc3c2)cnc1F`: the pIC50 is 5.74.
